Source: PubChem
An excerpt weighted towards active compounds, which were near 16% of everything screened.
miR-21 reporter: miR-21 reporter, rising signal. HeLa miR-21 FLuc reporter, luciferase, 48 h. Potency, µM (highest dose often 38.3 µM), for the others: at the highest dose reporter change, positive = more light. 340,000 tested, under 10 active. AID 2288; active = well fitted rising curve with a large enough effect; inconclusive = small, poorly fitted or top-dose-only effect; inactive = no such curve, though single readings can be large or run the other way;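 further: % of control where 0% means no effect; miR-21 action dims this reporter so a rising signal means less miR-21 action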
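Using DMEM plus 10% FBS, HeLa miR-21-FLuc cells are incubated with test compounds (final up to about 40uM) for 48 hours; firefly luciferase signal is then imaged following reagent-mediated lysis.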
uPA surface inh: cell surface uPA generation inhibition | cell surface uPA generation assay, qHTS | hit rate 0.31% among 330,000 | Potency, µM (doses to about 38.3 µM), for the others: at the highest dose activity change, negative = inhibition, usual class: inhibitors | AID 540303; active means well fitted inhibition curve with a large enough effect; inconclusive means small, poorly fitted or top-dose-only effect; inactive means no such curve, though single readings can be large or run the other way; tested in mouse RAW 264.7 cells; further: potency means the concentration at half of the fitted maximal effect; on the % scale 0 is the no-effect control and ±100 the full control effect; nearly all actives have a fitted effect of over 55% in size
DT40 TDP1 CPT: growth inhibition of DT40 Tdp1-/-;hTDP1 cells with camptothecin (screen for TDP1 inhibitors) | hit rate 12% among 420,000 | Potency, µM (highest dose often 46.2 µM), inactives show at the highest dose activity change, negative = growth inhibition, usual class: inhibitors | chicken DT40 Tdp1-/-;hTDP1 cells + 20 nM CPT, ATP luminescence, 48 h; further: potency means the concentration at half of the fitted maximal effect; on the % scale 0 is the no-effect control and ±100 the full control effect; nearly all actives have a fitted effect of over 55% in size
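Chicken DT40 Tdp1-/- cells stably complemented with human TDP1 were seeded at 400 cells/well in medium containing 20 nM camptothecin, exposed to pin-transferred compounds, and grown at 37 °C for at least 48 hr. Viability was read as ATP luminescence.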
TDP1 inh: inhibitors of human tyrosyl-DNA phosphodiesterase TDP1; recombinant TDP1, AlphaScreen DNA substrate cleavage; Potency, µM (titrated, usually from 130 µM), without a hit: top-dose activity change, negative = inhibition, actives largely listed as inhibitors; hit rate 0.28% among 350,000; further: potency means the concentration at half of the fitted maximal effect; on the % scale 0 is the no-effect control and ±100 the full control effect; nearly all actives have a fitted effect of over 40% in size
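Tdp1 1 nM final; 15 min RT w/ cpd; substrate 15 nM, 5 min; beads 10 ug/ml, 10 min; AlphaScreen read. Neg ctrl: no enzyme.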
TDP1 cell noCPT: qHTS for Inhibitors of human tyrosyl-DNA phosphodiesterase 1 (TDP1): qHTS in cells in absence of CPT; DT40 Tdp1-/- hTDP1 cells, no CPT, ATP luminescence, 48 h; Potency, µM (series often up to 46.2 µM), inactives show top-dose activity change, negative = growth inhibition, most hits filed as inhibitors; hit rate 15% among 420,000; further: potency means the concentration at half of the fitted maximal effect; on the % scale 0 is the no-effect control and ±100 the full control effect; nearly all actives have a fitted effect of over 55% in size
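No-CPT arm: Tdp1-/-;hTDP1 DT40 cells (400/well) plus compounds, incubated ≥48 hr at 37 °C. Readout CellTiter-Glo luminescence.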
The depositor's hits bear a star; ? = inconclusive; · = no result. Unless noted, the call rests on the fitted dose curve; in most records, active means well fitted curve in the direction sought with a large enough effect; inconclusive means small, poorly fitted or top-dose-only effect, or another doubt; inactive means no such curve, though single readings can be large; an effect the other way counts as inactive or inconclusive.

| cpd | smiles | miR-21 reporter | uPA surface inh | DT40 TDP1 CPT |
| --- | --- | --- | --- | --- |
| 1 | CC(=O)n1cc([C@H]2C=C(C(=O)Nc3ccccc3)O[C@@H](OCCCCO)C2)c2ccccc21 | 1% | 14% | ? |
| 2 | FC(F)C(F)(F)C(F)(F)C(F)(F)c1cc(-c2ccccc2)n[nH]1 | 7% | · | ? |
| 3 | CSc1ccc(CCNC(=O)c2sc3ncccc3c2-n2cccc2)cc1 | 9% | · | 16µM* |
| 4 | CCN(CC)CCNC(=O)c1sc2ncccc2c1-n1cccc1 | -2% | · | -6% |
| 5 | CCc1cc2c(=O)c(-c3ccc4c(c3)OCCO4)c(C)oc2cc1OS(C)(=O)=O | 4% | -9% | ? |
| 6 | COc1ccccc1NC(=O)CCC(=O)N(Cc1ccc(OC)c(OC)c1)c1nccs1 | -6% | 2% | 0% |
| 7 | CCCCN(C)C(=O)c1ccc(Nc2nc(C(N)CCc3ccccc3)cs2)nc1 (centres undefined) | · | · | 15µM* |
| 8 | CCCCN(C)C(=O)c1ccc(Nc2nc(C(N)Cc3ccc(C(F)(F)F)cc3)cs2)nc1 (centres undefined) | · | · | 8.2µM* |
| 9 | CC1(C)CC2CC(C)(CN2CC(O)c2ccccc2)C1 (centres undefined) | -1% | -3% | -19% |
| 10 | Cc1cc(C)c(CSc2ncnc3nc[nH]c23)c(C)c1 | -2% | -2% | -17% |
| 11 | Cc1cc(C)c(CSc2nnc(C)n3c2cc2occc23)c(C)c1 | -15% | · | 18µM* |
| 12 | Cc1ccccc1C(=O)N1CCC(C(=O)Nc2ccc(S(=O)(=O)N3C(C)CCCC3C)cc2)CC1 (centres undefined) | · | ? | 12µM* |
| 13 | CC1CCN(CC(=O)Nc2ccc(S(=O)(=O)N3C(C)CCCC3C)cc2)CC1 (centres undefined) | 2% | -2% | ? |
| 14 | CC1CCCN(CC(=O)Nc2ccc(S(=O)(=O)N3CCCC3)cc2)C1 (centres undefined) | -1% | -2% | 3% |
| 15 | COCc1c(C(=O)OCC(=O)N2c3ccccc3NC(=O)C2(C)C)oc2ccccc12 | 1% | -3% | ? |

| cpd | TDP1 inh | TDP1 cell noCPT |
| --- | --- | --- |
| 1 | 3% | ? |
| 2 | 5% | ? |
| 3 | 5% | 26µM* |
| 4 | 1% | 14% |
| 5 | 1% | 26µM* |
| 6 | 4% | -9% |
| 7 | · | 21µM* |
| 8 | · | 12µM* |
| 9 | · | -30% |
| 10 | -3% | -27% |
| 11 | 5% | 21µM* |
| 12 | · | 10µM* |
| 13 | · | 15µM* |
| 14 | · | 13µM* |
| 15 | 1% | ? |

Reprinted from the part before: 3 entries, then new ones.
| cpd | smiles | miR-21 reporter | uPA surface inh | DT40 TDP1 CPT |
| --- | --- | --- | --- | --- |
| 13 | CC1CCN(CC(=O)Nc2ccc(S(=O)(=O)N3C(C)CCCC3C)cc2)CC1 (centres undefined) | 2% | -2% | ? |
| 14 | CC1CCCN(CC(=O)Nc2ccc(S(=O)(=O)N3CCCC3)cc2)C1 (centres undefined) | -1% | -2% | 3% |
| 15 | COCc1c(C(=O)OCC(=O)N2c3ccccc3NC(=O)C2(C)C)oc2ccccc12 | 1% | -3% | ? |
| 16 | COc1ccc(C)cc1S(=O)(=O)n1cnc2ccccc21 | -1% | ? | 13µM* |
| 17 | N#Cc1cc2cc3c(cc2nc1NCCNC(=S)NCCCN1CCOCC1)OCO3 | -8% | -4% | -28% |
| 18 | CCN=c1sc(C(=O)NCCc2ccccc2)cc(=O)n1CC | 12% | -9% | ? |
| 19 | OCCNc1ncnc2ccc(Br)cc12 | 13% | 2% | ? |
| 20 | NC(=S)N/N=C1/CCSc2ccc3ccccc3c21 | 8% | 1% | 3.7µM* |
| 21 | NC(=S)N/N=C/c1coc2c(ccc3ccccc32)c1=O | -15% | 6% | -15% |
| 22 | COc1cccc(C(=O)/C=C/c2ccc(OCC#N)c(OC)c2)c1 | ? | -9% | 21µM* |
| 23 | COc1cc(/C=C/C(=O)c2ccc(O)cc2)ccc1OCC#N | ? | -3% | 8.2µM* |
| 24 | CCOc1ccc(/C=C/C(=O)c2ccccc2)cc1OC | -29% | -7% | ? |
| 25 | COC(=O)c1ccc(/C=C/C(=O)c2cccc(OC)c2)cc1 | -32% | 1% | ? |
| 26 | Cc1ccc(NC(=O)Nc2ccc3c(c2)OCO3)nc1 | -70% | ? | -28% |
| 27 | CC(=O)c1cccc(NC(=O)N2CCN(S(C)(=O)=O)CC2)c1 | -4% | · | -22% |
| 28 | O=C1CCc2ccc(OCCCCN3CCN(c4cccc(Cl)c4Cl)CC3)cc2N1 | 2% | 2% | 16µM* |
| 29 | Cc1cc(NC(=O)CCCSc2nc(-c3ccco3)cc(C(F)(F)F)n2)no1 | -4% | 3% | 0% |
| 30 | CC(C)(C)c1cc(C(F)(F)F)nc(SCCCNC(=O)c2ccco2)n1 | 9% | 7% | 23µM* |

| cpd | TDP1 inh | TDP1 cell noCPT |
| --- | --- | --- |
| 13 | · | 15µM* |
| 14 | · | 13µM* |
| 15 | 1% | ? |
| 16 | · | 15µM* |
| 17 | -5% | ? |
| 18 | 2% | 18µM* |
| 19 | 5% | 6.5µM* |
| 20 | 8% | 2.6µM* |
| 21 | 8% | -1% |
| 22 | 4% | 13µM* |
| 23 | 3% | 10µM* |
| 24 | 0% | ? |
| 25 | 7% | 23µM* |
| 26 | 2% | -17% |
| 27 | -1% | 0% |
| 28 | 19% | 15µM* |
| 29 | 0% | -27% |
| 30 | -2% | 21µM* |
